# Reference: US20240408099A1, “COMBINATION […] OF KRAS G12D INHIBITORS WITH Pan ErbB FAMILY INHIBITORS” (MIRATI THERAPEUTICS, INC., priority 2021, published 2024)
# Experiments:
# Panc 02.03 = Panc 02.03 TGI-43 pancreatic cancer xenograft (Table 5), tumor volumes; assay type: in vivo, nude/nude mice; conditions: 0.25 mg/dose Q3D
# Method: (§1) Immunocompromised nude/nude mice are inoculated in the right hind flank with cells harboring a KRas G12D mutation. When tumor volumes reach between 200-400 mm^3 in size, the mice are divided into four to five groups of 5 mice each. The first group is administered vehicle only. […] The fourth or last groups are administered the single agent dose of the KRas G12D inhibitor using the twice daily schedule and/or the 2 sequential days followed by 5 days off schedule in combination with the single agent dose of one of the EGFR inhibitors. The treatment period varies from cell line to cell line but typically is between 15-40 days. Tumor volumes are measured using a caliper every two-three days and tumor volumes are calculated by the formula: […].
# 20 to 30 nude/nude mice per study were inoculated in the right hind limb with 5×10^6 LS180 cells, AsPC-1 cells, GP2D cells, Panc 02.03 cells, SW1990 cells, or SNU-1033 cells. […] Tumor volumes, measured at pre-specified days, for the five mice per group were averaged and are reported for LS180, AsPC-1, GP2D, Panc 02.03, SW1990, and SNU-1033 in Tables 2, 3, 4, 5 and 6, respectively. […]
# LS180 cells = assay: LS180 colon cancer xenograft, tumor volumes; assay type: in vivo, nude/nude mice; conditions: 0.25 mg/kg Q3D
# Method: as §1
# 20 to 30 nude/nude mice per study were inoculated in the right hind limb with 5×10^6 LS180 cells, AsPC-1 cells, GP2D cells, Panc 02.03 cells, SW1990 cells, or SNU-1033 cells. […] Tumor volumes, measured at pre-specified days, for the five mice per group were averaged and are reported for LS180, AsPC-1, GP2D, Panc 02.03, SW1990, and SNU-1033 in Tables 2, 3, 4, 5 and 6, respectively.
# Experimental Procedures. 25 nude/nude mice were inoculated with LS180 cells in the right hind flank. When the tumors reached ˜250 mm^3 five treatment groups were established with five mice per group.
# LS180 = assay: Composite Synergy Score, Cell-Titer Glo 72 hours, dose matrix with MRTX1133; assay type: cell-based; conditions: combined with MRTX1133
# From the text: (§2) A panel of colon, pancreatic, gastric and endometrial cell lines harboring KRas G12D mutations was assembled to determine whether combining pan ErbB family inhibitors with exemplary KRas G12D inhibitors disclosed herein results in synergistic activity. The collection included SNU61 (colon, KCLB #00061), LS180 (colon, ATCC #CL-187), Panc 05.04 (pancreas, ATCC #CRL-2557), Panc 02.03 (pancreas ATCC #CRL-2553), SNU-407 (colon, AddexBio #C0009016), LS513 (colon, ATCC #CRL-2134), HPAC (pancreas, ATCC #CRL-2119), AGS (gastric, ATCC #CRL-1739), SNU-1197 (colon, KCLB #01197.1), SNU-1033 (colon, KCLB #01033), SNU-410 (pancreas, KCLB #00410), HEC-1-B (endometrial, ATCC #HTB-113), SU.86.86 (pancreas, ATCC #CRL-1837), SNU-C2B (colon, ATCC #CCL-250), Panc 08.13 (pancreas, ATCC #CRL-2551), SUIT-2 (pancreas, JCRB #JCRB1094), HPAF-II (pancreas, ATCC #CRL-1997), Panc 04.03 (pancreas, ATCC #CRL-2555), HCC-1588 (lung, KCLB #71588), GP2D (colon, SigmaAldrich #95090714), AsPC-1 (pancreas, ATCC CRL-1682), SW 1990 (pancreas, ATCC CRL-2172), and PANC-1 (pancreas, ATCC #CRL-1469).
# (§3) Assays for determining the synergy score for the pairwise combinations for each cell line were performed in triplicate. Three 96-well plates plus an additional 4 wells of a separate 96-well control plate for determining baseline luminescence were seeded with 2000 cells/well of a particular cell line in a total volume of 90 μl of a suitable growth medium for that cell line, e.g., RPMI 1640 medium supplemented with 10% FBS and any cell line specific reagents need for growth. The plates were incubated overnight at 37° C. in a 5% CO2 atmosphere.
# (§4) To each of the designated baseline wells, 30 μl of Cell-Titer Glo reagent (CTG; Promega Corporation) was added to each well and the plates were incubated for 20 min with shaking at room temperature. Baseline luminescence was quantitated using a BMG ClarioStar multimode plate reader according to the manufacturer's instructions.
# (§5) A series of working stock 1000× drug dilutions in 100% DMSO was prepared that includes an 8 point single agent dilution of MRTX 1133 and a 5-point single agent dilution of the pan ErbB family inhibitor. The dilutions used for MRTX1133 and the pan ErbB family inhibitor varied for each individual compound but were in the range of 3- to 6-fold/serial dilution.
# (§6) A 10× intermediate dosing plate was prepared in serum free RPMI medium that contains arrayed single agent dilutions MRTX1133 or the pan ErbB family inhibitor. In addition, a matrix of 40 dilution combinations of MRTX1133 and the pan ErbB family inhibitor was prepared as test samples.
# (§7) To each corresponding well of the three 96-well plates seeded with the appropriate cell line above, 10 μl of each 10× single agent and the 40 combinations of the dose matrix was added and the plates were incubated for 72 hours at 37 C in 5% CO2 atmosphere. A 30 μl aliquot of Cell-Titer Glo reagent (CTG) was added to each test well, the plates were incubated for 20 min with shaking at room temperature, and luminescence was quantitated using a BMG ClarioStar multimode plate reader according to the manufacturer's instructions.
# (§8) The output of the data from each mathematical model is the assignment of a relative synergy score. The data reported in Table 1 are the aggregate sum of the Loewe additivity, Bliss independence, Highest Single Agent and ZIP scores (“Composite Synergy Score”).
# (§9) A custom R-script was created, integrating open source Bioconductor packages, to batch process metadata files containing experimental parameters and raw data files. Various numerical and graphical outputs were generated to summarize the data. Single agent parameters were generated using GRmetrics Clark N, Hafner M, Kouril M, Muhlich J, Niepel M, Williams E, Sorger P, Medvedovic M (2016). “GRcalculator: an online tool for calculating and mining drug response data.” doi: 10.6084/m9.figshare.4244408.v1, http://www.grcalculator.org/. […]
# Panc0403 = assay: as above; assay type: cell-based; conditions: combined with MRTX1133
# From the text: as §2, §3, §4, §5, §6, §7, §8, §9
# HPAC = assay: as above; assay type: cell-based; conditions: combined with MRTX1133
# From the text: as §2, §3, §4, §5, §6, §7, §8, §9
# SNU61 = assay: as above; assay type: cell-based; conditions: combined with MRTX1133
# From the text: as §2, §3, §4, §5, §6, §7, §8, §9
# HPAFII = assay: as above; assay type: cell-based; conditions: combined with MRTX1133
# From the text: as §2, §3, §4, §5, §6, §7, §8, §9
substance,measurement,setting,value
Cetuximab: anti-EGFR monoclonal antibody approved for human clinical use (ImClone),tumor growth inhibition,"Panc 02.03; single agent, Day 22",33%
same,Average Tumor Volumes,Panc 02.03; Study Day 1,330.908 mm^3
same,Average Tumor Volumes,Panc 02.03; Study Day 4,382.648 mm^3
same,Average Tumor Volumes,Panc 02.03; Study Day 8,456.018 mm^3
same,Average Tumor Volumes,Panc 02.03; Study Day 11,489.668 mm^3
same,Average Tumor Volumes,Panc 02.03; Study Day 15,589.42 mm^3
same,Average Tumor Volumes,Panc 02.03; Study Day 18,730.102 mm^3
same,Average Tumor Volumes,Panc 02.03; Study Day 22,858.32 mm^3
same,tumor growth inhibition,"LS180 cells; single agent, Day 15",15%
same,Average Tumor Volumes,LS180 cells; Study Day 1,274.034 mm^3
same,Average Tumor Volumes,LS180 cells; Study Day 4,502.822 mm^3
same,Average Tumor Volumes,LS180 cells; Study Day 8,854.638 mm^3
same,Average Tumor Volumes,LS180 cells; Study Day 11,1330.518 mm^3
same,Average Tumor Volumes,LS180 cells; Study Day 15,1715.024 mm^3
same,Composite Synergy Score,LS180,65
same,Composite Synergy Score,Panc0403,40
same,Composite Synergy Score,HPAC,33
same,Composite Synergy Score,SNU61,52
same,Composite Synergy Score,HPAFII,31
